Experimental data reported in PMC9304032 (Proceedings of the National Academy of Sciences of the …, 2022).

Biological target: T1, glucocerebrosidase (GCase) (Homo sapiens, UniProt P04062)
T1 sequence (P04062 40-536): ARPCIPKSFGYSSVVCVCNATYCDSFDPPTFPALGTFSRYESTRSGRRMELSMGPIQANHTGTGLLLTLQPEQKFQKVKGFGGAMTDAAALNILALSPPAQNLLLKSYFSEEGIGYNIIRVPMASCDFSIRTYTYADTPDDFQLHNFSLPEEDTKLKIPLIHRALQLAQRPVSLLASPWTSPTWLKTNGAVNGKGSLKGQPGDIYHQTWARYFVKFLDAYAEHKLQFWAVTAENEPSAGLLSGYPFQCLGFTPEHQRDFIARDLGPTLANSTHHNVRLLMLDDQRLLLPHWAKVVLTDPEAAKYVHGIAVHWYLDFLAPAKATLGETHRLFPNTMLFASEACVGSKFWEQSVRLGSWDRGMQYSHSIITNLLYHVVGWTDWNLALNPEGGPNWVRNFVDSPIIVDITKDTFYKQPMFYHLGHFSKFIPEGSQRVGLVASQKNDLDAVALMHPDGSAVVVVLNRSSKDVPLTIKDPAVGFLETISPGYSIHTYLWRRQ
Experiment: live-cell target engagement, inhibition of LysoFQ-GBA turnover
Type: cell-based

With `O[C@H]1[C@H](O)CNC[C@@H]1C(F)F` [AT3375] the IC50 was 170 nM.
